## Yeast mating assay 1: variants of the scFv Ab-14

Reference: Engelhart et al. 2022, doi:10.1038/s41597-022-01779-4. File: FLAb, binding data.

Antigen: PDVDLGDISGINAS, a 14-residue peptide of the SARS-CoV-2 spike HR2 region.

Each scFv is VH, three GGGGS repeats, VL, as in the parent Ab-14, and differs from it in the CDRs of the light chain only.
VH: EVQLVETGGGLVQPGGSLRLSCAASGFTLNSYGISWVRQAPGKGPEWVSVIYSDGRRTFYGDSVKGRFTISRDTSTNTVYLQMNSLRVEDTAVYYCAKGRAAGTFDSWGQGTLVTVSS
VL: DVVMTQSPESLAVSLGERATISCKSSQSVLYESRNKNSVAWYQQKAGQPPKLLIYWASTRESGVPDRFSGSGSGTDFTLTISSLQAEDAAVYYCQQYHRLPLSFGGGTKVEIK

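Phage display of a naive human antibody library on the peptide gave the parent. The library (AAYL50) carries one to three amino acid substitutions per variant, with no insertions or deletions. In AlphaSeq, yeast of one mating type display the scFv and yeast of the other type display the target. The frequency of each diploid, read from paired DNA barcodes, reflects how well the two displayed proteins bind. Read counts were normalised to the haploid input and turned into Kd by a linear fit to BCL2-family pairs of known affinity, for each replicate. There are three technical replicates.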

Variants are written as CDR1, CDR2 and CDR3 of the light chain (limits as in the source). Parent: KSSQSVLYESRNKNSVA, WASTRES, QQYHRLPLS. All variants listed here change L102 of the VL, counted from its first residue. Affinities are written as log10 Kd with Kd in nM; a lower number is a better binder. Averages over replicates are reported, and they cover detected replicates only. An entry "nd" has no value in the source: the pair was not observed among the diploids in any replicate. This suggests poor binding but is not conclusive. Background: pairings of library AAYL50 with three empty control strains gave a value in 18% of cases (median 4.19, 5th percentile 2.99). Values in that range, when seen in few replicates, are hard to tell from nonspecific mating.

For KSSQSVLYESRYKNIVA / WASTRES / QQYHRLPAS, the assay gave nd (0 of 3 replicates). For KSSQIVLYEKRNKNSVA / WASTRES / QQYHRLPSS, the assay gave nd (0 of 3 replicates). With DSSQSVLYEVRNKNSVA / WASTRES / QQYHRLPCS the result was nd (0 of 3 replicates). Variant KSSQSVLYESRNKNSVA / WASTRES / QRYHRLPWS showed 1.15 (3 of 3 replicates). Variant KSSQSVLYESRNKNTVA / WASTRES / QQYARLPCS gave 4.07 (3 of 3 replicates).

With KSSQSVLYESRNKNRVA / WQSTRES / QQYHRLPRS the result was nd (0 of 3 replicates). For MSSQSVLYESRNKNSVA / WARTRES / QQYHRLPSS, the assay gave 3.59 (3 of 3 replicates). With KSSQSVLYESRSSNSVA / WASTRES / QQYHRLPWS the result was 2.19 (3 of 3 replicates). Variant KSSQSVLYESRNKNSVA / WASTREC / QQYHRLPFS showed 1.37 (3 of 3 replicates). Variant KSSQSVLYESRNKNSVA / WASTRES / QQYDSLPDS gave 4.27 (1 of 3 replicates).

Variant KSSNSVLYESRNKNSVA / WASTRES / QKYHRLPAS showed 4.12 (1 of 3 replicates). Variant KSSQEVLFESRNKNSVA / WASTRES / QQYHRLPMS showed 0.89 (3 of 3 replicates). With KSSQSVLYESRNKNSVA / WASERES / QRYHRLPPS the result was 1.79 (3 of 3 replicates). With KSSQSVLYESRNKNSVA / WSSTRES / QQIHRLPPS the result was nd (0 of 3 replicates). With KSSQSVRYESRNKNSVF / WASTRES / QQYHRLPIS the result was 4.31 (2 of 3 replicates).

Variant KRSQSVLYESRNKISVA / WASTRES / QQYHRLPFS gave nd (0 of 3 replicates). With KSSQSVLYWSRNKNSVA / WASTRES / QGYHRLPMS the result was 2.49 (3 of 3 replicates). Variant KSSQSVLHESRNKNSVA / WASTRES / QQYHRLPIT gave 1.93 (3 of 3 replicates). Variant KSSQSVLYESRNKNSVA / WASTRES / QQYHRLLTS showed 1.08 (3 of 3 replicates). Variant KSSQSVLYESRNKNSVA / WASTRES / QQYHRLPPS gave 1.34 (3 of 3 replicates).

With KSSGSVCYESRNKNSVA / WASTRES / QQYHRLPMS the result was 2.95 (3 of 3 replicates). For KSSQSVLYESRNKNSVA / WNSTRES / QQYHRLPIA, the assay gave 4.29 (1 of 3 replicates). For KSWQSVLYASRNKNSVA / WASTRES / QQYHRLPYS, the assay gave nd (0 of 3 replicates). For CSSQSVLYESRNKNSVA / WASTRES / QQYHRLPPS, the assay gave 2.26 (3 of 3 replicates). For KSSQCVLYESRNKNSVA / WASTRES / QQYHRLPCS, the assay gave 4.60 (2 of 3 replicates).

With KSSQSVLYESRNKNSVA / WFSTRES / QQYHPLPPS the result was 5.20 (2 of 3 replicates). Variant KSSQSVLYESRNKNSVR / WASTRES / MQYHRLPFS showed nd (0 of 3 replicates). Variant KSSQSVLYESRNKNTVA / WASTREH / QQYHRLPSS showed 3.10 (1 of 3 replicates). With KSSQSVLYESRNKNSVA / WAETRES / MQYHRLPGS the result was 5.40 (3 of 3 replicates). Variant KSSQSVLYESRNKNSVA / WASTRES / AQYHVLPPS gave 0.97 (3 of 3 replicates).

Variant KSSQSVLYESFNKNSVA / WASTRES / QQYHRLPSS showed 0.95 (3 of 3 replicates). Variant KSSQSVLYESRNKNSSA / WASTRES / QQYHRLPKS gave 5.96 (2 of 3 replicates). Variant KSSQQVLYESRNKNSIA / WASTRES / QQYHRLPFS showed 1.05 (3 of 3 replicates). Variant KSSQSVEYESRNKNSVA / WASTRES / QQYHRLTGS showed 0.76 (3 of 3 replicates). Variant KSSQSVLYEPRNKNSVA / WASTREV / QQYHRLPKS showed 1.40 (3 of 3 replicates).

For KSQQSVLYESRNKNMVA / WASTRES / QQYHRLPGS, the assay gave 4.54 (1 of 3 replicates). For KSSQSVPYPSRNKNSVA / WASTRES / QQYHRLPFS, the assay gave 1.79 (3 of 3 replicates). Variant KSSQSVLYSSRNKNSVA / WASTRES / QQYHRLGGS gave 2.58 (3 of 3 replicates). Variant KSSQSVLYESRRKNSVA / WASTRES / QQYHRLSES gave 1.36 (3 of 3 replicates). With KSSQSVLYESRNANSVA / WASTRES / QQYHRLPWS the result was 1.22 (3 of 3 replicates).

Variant KSSQSVLYESRNKNSHA / WASTRES / QQYHRLPWS gave nd (0 of 3 replicates). Variant KSSQSVLYESRNKNSVA / WASTRES / QQYHRLPAS gave nd (0 of 3 replicates). For KSSQSVLYETRNKNSVA / WASFRES / QQYHRLPVS, the assay gave 4.30 (1 of 3 replicates). Variant KSSQSVLYQSRNKNSVA / CASTRES / QQYHRLPGS showed nd (0 of 3 replicates). Variant KSSQSVLYESRNKNSVA / WASTRES / QQYHRLPQS gave 3.98 (1 of 3 replicates).

For KSSQSVLYEKRNKNSYA / WASTRES / QQYHRLPVS, the assay gave nd (0 of 3 replicates).

Picked from the list: the 3 lowest averages where every replicate gave a value.

CDR-L1	CDR-L2	CDR-L3	mean log10 Kd (nM)	detected
KSSQSVEYESRNKNSVA	WASTRES	QQYHRLTGS	0.76	3 of 3
KSSQEVLFESRNKNSVA	WASTRES	QQYHRLPMS	0.89	3 of 3
KSSQSVLYESFNKNSVA	WASTRES	QQYHRLPSS	0.95	3 of 3